Reference: patent US20260116920A1, “HUMAN TRANSFERRIN RECEPTOR BINDING PEPTIDE” (PEPTIDREAM INC., priority 2021, published 2026)

Chains of the proteins cited; added tags and fusions are not shown. Residues count along the entry.
UniProt P02786, 89-760 limits assumed: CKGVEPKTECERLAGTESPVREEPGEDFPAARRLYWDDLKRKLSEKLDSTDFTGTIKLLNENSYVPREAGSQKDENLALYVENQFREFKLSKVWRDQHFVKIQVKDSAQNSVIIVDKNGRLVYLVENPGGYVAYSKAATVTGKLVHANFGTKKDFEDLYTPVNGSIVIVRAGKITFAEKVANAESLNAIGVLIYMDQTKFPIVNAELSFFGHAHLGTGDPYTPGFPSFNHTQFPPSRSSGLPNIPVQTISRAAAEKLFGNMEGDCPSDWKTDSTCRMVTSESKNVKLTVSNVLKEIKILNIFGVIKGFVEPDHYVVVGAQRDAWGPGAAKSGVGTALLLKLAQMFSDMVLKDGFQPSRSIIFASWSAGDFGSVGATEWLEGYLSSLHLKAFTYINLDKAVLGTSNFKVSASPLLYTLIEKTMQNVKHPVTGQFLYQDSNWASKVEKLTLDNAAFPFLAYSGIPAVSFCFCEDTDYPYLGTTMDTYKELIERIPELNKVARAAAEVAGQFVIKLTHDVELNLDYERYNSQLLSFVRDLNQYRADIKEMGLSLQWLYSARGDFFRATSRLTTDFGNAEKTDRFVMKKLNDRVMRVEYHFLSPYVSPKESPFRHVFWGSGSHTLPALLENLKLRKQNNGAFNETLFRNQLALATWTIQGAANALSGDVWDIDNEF

What follows are molecules tested against T1, human transferrin receptor (hTfR) (Homo sapiens, UniProt P02786) (assay: Evaluation of molecular interaction between transferrin receptor (hTfR) and peptide using surface plasmon resonance (SPR)). Details: KD class of the peptide with linker for hTfR by surface plasmon resonance; read-out: SPR.
T1 construct: made in house
Type: binding
Method: Evaluation Test of Molecular Interaction Between Transferrin Receptor (hTfR) and Peptide Using Surface Plasmon Resonance (SPR)
The intermolecular interactions of various synthesized peptides with the transferrin receptor (hTfR) by surface plasmon resonance (SPR) of the peptides were tested by the methods described below. Specific test methods are shown below.
NTA sensor chip (Global Life Sciences Technologies Japan K.K.) was inserted into BiacoreT200 (Global Life Sciences Technologies Japan K.K.), then the priming operation was performed three times by using running buffer containing: 10 mM HEPES pH 8.0 (Nacalai Tesque, Inc.), 150 mM NaCl (Nacalai Tesque, Inc.), 0.05% Tween 20 (Nacalai Tesque, Inc.), 0.1% BSA (SIGMA-ALDRICH) and 1.0% DMSO (FUJIFILM Wako Pure Chemical Corporation), and equilibrated at a flow rate of 30 μL/min. 350 mM EDTA solution was reacted at a flow rate of 10 μL/min for 60 seconds, 0.5 mM […] solution (Kishida Chemical Co., Ltd.) was reacted at a flow rate of 10 μL/min for 60 seconds, and then the NTA sensor chip was washed with 3 mM EDTA solution (Nacalai Tesque, Inc.) at a flow rate of 10 μL/min for 60 seconds. After mixing 50 μL each of 60 mM EDC solution (Global Life Science Technologies Japan K.K.) and 650 mM NHS solution (Global Life Science Technologies Japan K.K.), the reaction was carried out at a flow rate of 10 μL/min for 420 seconds. 150 μL of 0.5 μM hTfR dimer solution was prepared by dilution with running buffer and reacted at a flow rate of 10 μL/min for 300 seconds to immobilize hTfR on the NTA sensor chip. For the human transferrin receptor (hTfR), recombinant hTfR described in Example 2 of WO2018/124121 was used. After immobilization, capping was performed by reacting with 1.0 M ethanolamine solution (Global Life Sciences Technologies Japan K.K.) at a flow rate of 10 μL/min for 420 seconds. Peptide lysate prepared in DMSO solution to 10 mM was diluted with running buffer to be a final concentration of 10 μM peptide lysate, then peptide solutions of 100 nM, 50 nM, 25 nM, 10 nM, and 5 nM were prepared. Using the above samples, the kinetics of the peptide against hTfR was obtained by SPR measurement.
The kinetic evaluation model was single-cycle kinetics, and curve fitting was performed using Biacore T200 Evaluation Software Version 3.0 (Global Life Science Technologies Japan K.K.). The binding of the peptide to hTfR was evaluated by performing curve fitting on the obtained sensorgram by least squares method and obtaining the KD value.

| Compound | Kd |
| --- | --- |
| CC[C@H](C)[C@@H]1NC(=O)[C@H](Cc2ccc(OCC(=O)O)cc2)NC(=O)[C@H](Cc2ccc(O)cc2)NC(=O)[C@H](CC(N)=O)NC(=O)[C@H](Cc2cn(CC(=O)O)c3ccccc23)NC(=O)[C@H](C(C)C)NC(=O)[C@H](Cc2cccc(Cl)c2)N(C)C(=O)[C@H](C(C)C)NC(=O)[C@H](C)NC(=O)CSC[C@@H](C(=O)NCC(=O)N[C@H](CCC(=O)O)C(=O)N[C@H](CCC(=O)O)C(=O)N[C@H](CCC(=O)O)C(=O)N[C@H](CO)C(=O)N[C@H](CO)C(=O)N[C@@H](CCCCN)C(N)=O)NC(=O)[C@H](Cc2ccc(O)cc2)N(C)C(=O)[C@H](Cc2ccccc2)NC(=O)[C@H](CCCNC(=N)N)NC(=O)[C@H](CCCNC(=N)N)NC(=O)[C@H]([C@@H](C)CC)NC1=O [compound 265] | 1 to 100 nM |
| CC[C@H](C)[C@@H]1NC(=O)[C@H](Cc2ccc(O)cc2)NC(=O)[C@H](Cc2ccc(O)cc2)NC(=O)[C@H](CC(N)=O)NC(=O)[C@H](Cc2c[nH]c3ccccc23)N(C)C(=O)[C@H](C(C)C)NC(=O)[C@H](Cc2ccccc2)N(C)C(=O)[C@H](C(C)C)NC(=O)[C@H](C)NC(=O)CSC[C@@H](C(=O)NCC(=O)N[C@@H](CS)C(N)=O)NC(=O)[C@H](Cc2ccc(O)cc2)N(C)C(=O)[C@H](Cc2ccc(O)cc2)NC(=O)[C@H](CCCNC(=N)N)NC(=O)[C@H](CCCCN)NC(=O)[C@H]([C@@H](C)CC)NC1=O [compound 267] | 1 to 100 nM |
| CC[C@H](C)[C@@H]1NC(=O)[C@H](Cc2ccc(OCC(=O)O)cc2)NC(=O)[C@H](Cc2ccc(O)cc2)NC(=O)[C@H](CC(N)=O)NC(=O)[C@H](Cc2cn(CC(=O)O)c3ccccc23)NC(=O)[C@H](C(C)C)NC(=O)[C@H](Cc2cccc(Cl)c2)N(C)C(=O)[C@H](C(C)C)NC(=O)[C@H](C)NC(=O)CSC[C@@H](C(=O)NCC(=O)N[C@@H](CCCCN=[N+]=[N-])C(N)=O)NC(=O)[C@H](Cc2ccc(O)cc2)N(C)C(=O)[C@H](Cc2ccncc2)NC(=O)[C@H](CCCNC(=N)N)NC(=O)[C@H](CCC(=O)NCCOCCOCCOCCOCCOCCOCCOCCOC)NC(=O)[C@H]([C@@H](C)CC)NC1=O [compound 268] | 100 to 1000 nM |
| CC[C@H](C)[C@@H]1NC(=O)[C@H](Cc2ccc(OCC(=O)O)cc2)NC(=O)[C@H](Cc2ccc(N)nc2)NC(=O)[C@H](CC(N)=O)NC(=O)[C@H](Cc2c[nH]c3ccccc23)NC(=O)[C@H](C(C)C)NC(=O)[C@H](Cc2cccc(Cl)c2)N(C)C(=O)[C@H](C(C)C)NC(=O)[C@H](C)NC(=O)CSC[C@@H](C(=O)NCC(=O)NCC(=O)NCC(=O)NCC(=O)N[C@@H](CO)C(=O)N[C@@H](CO)C(=O)N[C@@H](CCCCN=[N+]=[N-])C(N)=O)NC(=O)[C@H](Cc2ccc(O)cc2)N(C)C(=O)[C@H](Cc2cccc(C(=O)O)c2)NC(=O)[C@H](CCCNC(=N)N)NC(=O)[C@H](CCC(=O)NCCOCCOCCOCCOCCOCCOCCOCCOC)NC(=O)[C@H]([C@@H](C)CC)NC1=O [compound 269] | 1 to 100 nM |
| CC[C@H](C)[C@@H]1NC(=O)[C@H](Cc2ccc(OCC(=O)O)cc2)NC(=O)[C@H](Cc2ccc(N)nc2)NC(=O)[C@H](CC(N)=O)NC(=O)[C@H](Cc2c[nH]c3ccccc23)NC(=O)[C@H](C(C)C)NC(=O)[C@H](Cc2cccc(Cl)c2)N(C)C(=O)[C@H](C(C)C)NC(=O)[C@H](C)NC(=O)CSC[C@@H](C(=O)NCC(=O)N(C)CC(=O)N(C)CC(=O)N(C)CC(=O)N(C)CC(=O)N(C)CC(=O)N[C@@H](CCCCN=[N+]=[N-])C(N)=O)NC(=O)[C@H](Cc2ccc(O)cc2)N(C)C(=O)[C@H](Cc2cccc(C(=O)O)c2)NC(=O)[C@H](CCCNC(=N)N)NC(=O)[C@H](CCC(=O)NCCOCCOCCOCCOCCOCCOCCOCCOC)NC(=O)[C@H]([C@@H](C)CC)NC1=O [compound 270] | 1 to 100 nM |
| CC[C@H](C)[C@@H]1NC(=O)[C@H](Cc2ccc(OCC(=O)O)cc2)NC(=O)[C@H](Cc2ccc(N)nc2)NC(=O)[C@H](CC(N)=O)NC(=O)[C@H](Cc2c[nH]c3ccccc23)NC(=O)[C@H](C(C)C)NC(=O)[C@H](Cc2cccc(Cl)c2)N(C)C(=O)[C@H](C(C)C)NC(=O)[C@H](C)NC(=O)CSC[C@@H](C(=O)NCC(=O)N[C@@H](CCCCN=[N+]=[N-])C(N)=O)NC(=O)[C@H](Cc2ccc(O)cc2)N(C)C(=O)[C@H](Cc2cccc(C(=O)O)c2)NC(=O)[C@H](CCCNC(=N)N)NC(=O)[C@H](CCC(=O)NCCOCCOCCOCCOCCOCCOCCOCCOC)NC(=O)[C@H]([C@@H](C)CC)NC1=O [compound 271] | 1 to 100 nM |
| CC[C@H](C)[C@@H]1NC(=O)[C@H](Cc2ccc(OCC(=O)O)cc2)NC(=O)[C@H](Cc2ccc(N)nc2)NC(=O)[C@H](CC(N)=O)NC(=O)[C@H](Cc2c[nH]c3ccccc23)NC(=O)[C@H](C(C)C)NC(=O)[C@H](Cc2cccc(Cl)c2)N(C)C(=O)[C@H](C(C)C)NC(=O)[C@H](C)NC(=O)CSC[C@@H](C(=O)NCC(=O)N[C@H](CCC(=O)O)C(=O)N[C@H](CCC(=O)O)C(=O)N[C@H](CCC(=O)O)C(=O)N[C@H](CO)C(=O)N[C@H](CO)C(=O)N[C@@H](CCCCN=[N+]=[N-])C(N)=O)NC(=O)[C@H](Cc2ccc(O)cc2)N(C)C(=O)[C@H](Cc2cccc(C(=O)O)c2)NC(=O)[C@H](CCCNC(=N)N)NC(=O)[C@H](CCC(=O)NCCOCCOCCOCCOCCOCCOCCOCCOC)NC(=O)[C@H]([C@@H](C)CC)NC1=O [compound 272] | 1 to 100 nM |
| CC[C@H](C)[C@@H]1NC(=O)[C@H](Cc2ccc(O)cc2)NC(=O)[C@H](Cc2ccc(O)cc2)NC(=O)[C@H](CC(N)=O)NC(=O)[C@H](Cc2c[nH]c3ccccc23)N(C)C(=O)[C@H](C(C)C)NC(=O)[C@H](Cc2ccccc2)N(C)C(=O)[C@H](C(C)C)NC(=O)[C@H](C)NC(=O)CSC[C@@H](C(=O)NCC(=O)NCC(=O)N[C@H](CCCNC(=N)N)C(=O)NCC(=O)N[C@H](CCCNC(=N)N)C(=O)N[C@H](CO)C(=O)N[C@@H](CCCCN=[N+]=[N-])C(N)=O)NC(=O)[C@H](Cc2ccc(O)cc2)N(C)C(=O)[C@H](Cc2ccc(O)cc2)NC(=O)[C@H](CCCNC(=N)N)NC(=O)[C@H](CCCCN)NC(=O)[C@H]([C@@H](C)CC)NC1=O [compound 274] | 1 to 100 nM |
| CC[C@H](C)[C@@H]1NC(=O)[C@H](Cc2ccc(O)cc2)NC(=O)[C@H](Cc2ccc(O)cc2)NC(=O)[C@H](CC(N)=O)NC(=O)[C@H](Cc2c[nH]c3ccccc23)N(C)C(=O)[C@H](C(C)C)NC(=O)[C@H](Cc2ccccc2)N(C)C(=O)[C@H](C(C)C)NC(=O)[C@H](C)NC(=O)CSC[C@@H](C(=O)NCC(=O)N(C)CC(=O)N(C)CC(=O)N(C)CC(=O)N(C)CC(=O)N(C)CC(=O)N[C@@H](CCCCN=[N+]=[N-])C(N)=O)NC(=O)[C@H](Cc2ccc(O)cc2)N(C)C(=O)[C@H](Cc2ccc(O)cc2)NC(=O)[C@H](CCCNC(=N)N)NC(=O)[C@H](CCCCN)NC(=O)[C@H]([C@@H](C)CC)NC1=O [compound 276] | 1 to 100 nM |
| CC[C@H](C)[C@@H]1NC(=O)[C@H](Cc2ccc(OCC(=O)O)cc2)NC(=O)[C@H](Cc2ccc(O)cc2)NC(=O)[C@H](CC(N)=O)NC(=O)[C@H](Cc2cn(CC(=O)O)c3ccccc23)NC(=O)[C@H](C(C)C)NC(=O)[C@H](Cc2cccc(Cl)c2)N(C)C(=O)[C@H](C(C)C)NC(=O)[C@H](C)NC(=O)CSC[C@@H](C(=O)NCC(=O)N[C@H](CCC(=O)O)C(=O)N[C@H](CCC(=O)O)C(=O)N[C@H](CCC(=O)O)C(=O)N[C@H](CO)C(=O)N[C@H](CO)C(=O)N[C@@H](CCCCN=[N+]=[N-])C(N)=O)NC(=O)[C@H](Cc2ccc(O)cc2)N(C)C(=O)[C@H](Cc2cccc(C(=O)O)c2)NC(=O)[C@H](CCCNC(=N)N)NC(=O)[C@H](CCC(N)=O)NC(=O)[C@H]([C@@H](C)CC)NC1=O [compound 277] | 1 to 100 nM |

Same assay, conditions: SPR, KD class of the peptide with linker for hTfR by surface plasmon resonance

| Compound | Kd |
| --- | --- |
| CC[C@H](C)[C@@H]1NC(=O)[C@H](Cc2ccc(O)cc2)NC(=O)[C@H](Cc2ccc(O)cc2)NC(=O)[C@H](CC(N)=O)NC(=O)[C@H](Cc2c[nH]c3ccccc23)N(C)C(=O)[C@H](C(C)C)NC(=O)[C@H](Cc2ccccc2)N(C)C(=O)[C@H](C(C)C)NC(=O)[C@H](C)NC(=O)CSC[C@@H](C(=O)NCC(=O)NCC(=O)NCC(=O)NCC(=O)N[C@@H](CO)C(=O)N[C@@H](CO)C(=O)N[C@@H](CCCCN=[N+]=[N-])C(N)=O)NC(=O)[C@H](Cc2ccc(O)cc2)N(C)C(=O)[C@H](Cc2ccc(O)cc2)NC(=O)[C@H](CCCNC(=N)N)NC(=O)[C@H](CCCCN)NC(=O)[C@H]([C@@H](C)CC)NC1=O [compound 275] | 1 to 100 nM |
